Source: article PMC11792831, “Design and synthesis of doublecortin-like kinase 1 inhibitors and their bioactivity evaluation” (Journal of Enzyme Inhibition and Medicinal Chemistry, 2023)

Molecular target: T1, DCLK1 (Homo sapiens, UniProt O15075)
T1 construct: purchased Eurofins (Belgium), contract assay service
T1 sequence (O15075 1-740): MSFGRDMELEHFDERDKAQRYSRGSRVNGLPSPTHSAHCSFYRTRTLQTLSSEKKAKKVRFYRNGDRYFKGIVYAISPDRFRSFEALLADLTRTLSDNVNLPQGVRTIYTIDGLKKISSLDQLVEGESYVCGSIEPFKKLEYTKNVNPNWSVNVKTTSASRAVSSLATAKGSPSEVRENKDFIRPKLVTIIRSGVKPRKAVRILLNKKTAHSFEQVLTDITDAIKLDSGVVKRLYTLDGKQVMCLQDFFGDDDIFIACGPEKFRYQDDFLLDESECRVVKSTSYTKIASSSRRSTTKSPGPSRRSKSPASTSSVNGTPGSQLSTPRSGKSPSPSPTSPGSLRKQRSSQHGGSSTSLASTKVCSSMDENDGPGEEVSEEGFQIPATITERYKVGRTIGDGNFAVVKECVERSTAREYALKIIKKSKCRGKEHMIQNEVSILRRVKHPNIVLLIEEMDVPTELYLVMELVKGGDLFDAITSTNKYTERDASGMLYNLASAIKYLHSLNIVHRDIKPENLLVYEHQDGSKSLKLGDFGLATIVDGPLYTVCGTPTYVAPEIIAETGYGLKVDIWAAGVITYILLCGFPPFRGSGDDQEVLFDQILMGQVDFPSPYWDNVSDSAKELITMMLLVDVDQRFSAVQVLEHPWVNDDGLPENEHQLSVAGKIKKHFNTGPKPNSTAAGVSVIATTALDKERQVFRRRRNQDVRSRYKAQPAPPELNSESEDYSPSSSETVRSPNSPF
Assay: In vitro DCLK1 kinase activity assay (Eurofins)
Format: biochemical
Source text: Eurofins (Belgium) conducted in vitro DCLK1 and LRRK2 kinase activity assays. Compounds were sent as dry powders to Eurofins.

Compound: CCOc1cc(N2CCC(O)CC2)ccc1Nc1ncc2c(n1)N(C)c1ccccc1C(=O)N2C [XMD8-92, reference compound]
- Selectivity (IC50 of DCLK1/IC50 of LRRK2) (ratio of IC50 values): 0.74
- Selectivity (DCLK1 activity/LRRK2 activity) (ratio of remaining activities at 1 uM): 0.78
